# Measured affinities in a library of Ab-14 light chain variants

All variants were tested on one target, the spike HR2 peptide PDVDLGDISGINAS (SARS-CoV-2).

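Phage display of a naive human antibody library on the peptide gave the parent. AAYL50 was designed without a model: most single CDR substitutions and a random sample of double and triple ones. The scFvs were displayed on barcoded MATa yeast, the peptide on MATalpha yeast. The frequency of each diploid, read from paired DNA barcodes, reflects how well the two displayed proteins bind. A regression on co-assayed BCL2-family reference pairs converts the normalised counts of each replicate to an apparent Kd. Each pool was mated in three replicate cultures.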

The variants keep the heavy chain, the linker and the frameworks of Ab-14 (scFv order VH, the linker GGGGSGGGGSGGGGS, VL).
VH: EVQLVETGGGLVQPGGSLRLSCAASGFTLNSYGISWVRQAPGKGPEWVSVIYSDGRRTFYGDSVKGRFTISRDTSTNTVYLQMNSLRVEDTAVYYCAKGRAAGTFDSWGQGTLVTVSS
VL: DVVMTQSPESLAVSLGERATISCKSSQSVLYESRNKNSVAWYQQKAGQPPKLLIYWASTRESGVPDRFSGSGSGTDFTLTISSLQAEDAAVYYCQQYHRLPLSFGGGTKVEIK

The parent's light chain CDRs are KSSQSVLYESRNKNSVA, WASTRES, QQYHRLPLS; each variant's own CDRs replace them letter for letter.
Every variant below is changed at L100 of the VL (sequential numbering).
Kd is apparent (estimated from mating counts) and averaged on the log scale over replicates with a signal. Smaller is tighter.
"no signal" marks a missing value. The strain was present, yet no cells mated with the target were sequenced in any replicate, which points to weak or no binding.
For reference, the parent read 4.4 nM as the reference entry and 48 nM as a member of this library.
Nonspecific signal, from three strains lacking the peptide, appeared in 18% of pairings of library AAYL50, centred on 15 µM (5% of these signals below 970 nM); values are not corrected for it.

For KSSQSVLYESRNKVSVA | WASTRES | QQYHRRPLS, the assay gave 93 nM (3 of 3 replicates). Variant KSSQSVLYESRNKNSRA | WASTMES | QQYHRQPLS showed no signal (0 of 3 replicates). For KSSQSVLYESRNKNSVA | CASGRES | QQYHRAPLS, the assay gave 7.3 µM (3 of 3 replicates). For KWSQSVLYELRNKNSVA | WASTRES | QQYHRPPLS, the assay gave no signal (0 of 3 replicates). Variant KSSQSVEYESRNKNSVA | WASTRES | QQTHRSPLS gave 820 nM (3 of 3 replicates). Variant KSSQSVLQEARNKNSVA | WASTRES | QQYHRGPLS showed 13 nM (3 of 3 replicates). For KSSQSVLYESRNKNSVW | WASTRES | QQYHRKPLS, the assay gave no signal (0 of 3 replicates).

Variant KSSQSVLYESRNKNSVA | WASTGES | QQYHREPLS showed no signal (0 of 3 replicates). With KSSQSVLYESRNKNSVD | WASTRKS | QQYHRPPLS the result was no signal (0 of 3 replicates). For KSLQSVLYESRNKNSVA | WASTRES | QQGHRRPLS, the assay gave 5.2 µM (1 of 3 replicates). With KSSQSVLYESRNKNSVA | WAVTRES | QQYHRAPLS the result was no signal (0 of 3 replicates). Variant KSSQSELYESRNKNSVA | WASTRGS | QQYHRGPLS showed 10 nM (3 of 3 replicates). With KSSQSVLYESRNKNSQA | WASTRES | QQYHSIPLS the result was 1.6 µM (1 of 3 replicates). With KSSQSVLYESRNKNSVA | WAQTRES | QQYHRHPLK the result was 17 nM (3 of 3 replicates).

With KSSQSVLNESRNKHSVA | WASTRES | QQYHRMPLS the result was 26 nM (3 of 3 replicates). With KSSQSVFYESRNKNSVA | WAPTRES | QQYHRGPLS the result was 110 µM (2 of 3 replicates). With KSSQSVLYESRNKNSVC | WASTRES | QQYHRTPLS the result was 39 µM (3 of 3 replicates). Variant KRSQSVLYESRNKNSVA | WPSTRES | QQYHRFPLS showed no signal (0 of 3 replicates). For KSSQSVLYESVNKNSVA | WASTRES | QQYHRPPLQ, the assay gave 4.0 nM (3 of 3 replicates). With KSSQSVLYVSRNKNSVA | WASTRES | QHYHRRPLS the result was no signal (0 of 3 replicates). With KSSQSVLYESRNKNSVA | WASTRES | QQYHRCPLS the result was 15 nM (3 of 3 replicates).

Variant KSSQSVLMESRNKNSVA | HASTRES | QQYHRYPLS showed 1.6 nM (3 of 3 replicates). Variant KSSQSVLYESRNKVSVA | WASTRES | QQYHRGPLS showed 30 µM (1 of 3 replicates). Variant KSSQSVLYESQNKNKVA | WASTRES | QQYHRFPLS showed 220 nM (1 of 3 replicates). Variant TSSQSVLYESRNKNSVA | WASTREC | QQYHREPLS showed 120 nM (3 of 3 replicates). Variant KSHQSPLYESRNKNSVA | WASTRES | QQYHRGPLS gave no signal (0 of 3 replicates). For KSSQSVIYESRNKNSVA | WASTRES | QQYHRPPLL, the assay gave 50 nM (3 of 3 replicates). Variant KSSQSVLYESHNKNSVA | WASTRES | QQYHRPPLS gave 54 nM (3 of 3 replicates).

With KSSQSVLYESRNKVSVA | WASTEES | QQYHRQPLS the result was no signal (0 of 3 replicates). Variant KSSQSALYELRNKNSVA | WASTRES | QQYHRSPLS showed no signal (0 of 3 replicates). Variant KSSQSVIYESRNKNSVA | WASTRES | QQYHRVWLS showed 1.0 µM (3 of 3 replicates). Variant KSSQIVLYESRVKNSVA | WASTRES | QQYHRHPLS gave 98 nM (3 of 3 replicates). For KSSQSVLYESRNKNSVA | WASTRES | RQYYRHPLS, the assay gave no signal (0 of 3 replicates). For KSSQSVLYESRNKNSVA | WASTRES | QQYHRPPLS, the assay gave 96 nM (3 of 3 replicates). Variant KSSQSVLYESRNKNSVA | WASTRES | QYCHRCPLS showed 2.7 µM (2 of 3 replicates).

With KSSQNVLYESRNKNSVA | WASTRES | NQYHRRPLS the result was 180 µM (3 of 3 replicates). Variant KSSQSVLYESRNKNSVA | TAPTRES | QQYHRYPLS gave 180 µM (1 of 3 replicates). For KSSQSVLYESRNKNSVA | WAVTYES | QQYHRGPLS, the assay gave no signal (0 of 3 replicates). Variant KSSQSVLYESRNKPSVA | WASTRES | QQYHRMRLS showed no signal (0 of 3 replicates). Variant KSSQSTIYESRNKNSVA | WASTRES | QQYHRTPLS showed 77 nM (3 of 3 replicates). Variant DSSQSQLYESRNKNSVA | WASTRES | QQYHRRPLS showed 42 nM (3 of 3 replicates). Variant KSSQSVLYESRNKNSVA | WASTRES | GQRHRDPLS showed 20 nM (3 of 3 replicates).

Variant KESQSVLYESRNKNSVA | WASTRES | QQYHRKPVS gave 11 nM (3 of 3 replicates). Variant KGSQPVLYESRNKNSVA | WASTRES | QQYHRTPLS showed 7.9 µM (2 of 3 replicates). Variant KSSQSVLYESRRKNSVA | WASTRES | QRYHRMPLS gave 24 nM (3 of 3 replicates).

The first 7 variants above that were never detected:

CDR-L1,CDR-L2,CDR-L3,Kd (apparent),detected
KSSQSVLYESRNKNSRA,WASTMES,QQYHRQPLS,no signal,0 of 3
KWSQSVLYELRNKNSVA,WASTRES,QQYHRPPLS,no signal,0 of 3
KSSQSVLYESRNKNSVW,WASTRES,QQYHRKPLS,no signal,0 of 3
KSSQSVLYESRNKNSVA,WASTGES,QQYHREPLS,no signal,0 of 3
KSSQSVLYESRNKNSVD,WASTRKS,QQYHRPPLS,no signal,0 of 3
KSSQSVLYESRNKNSVA,WAVTRES,QQYHRAPLS,no signal,0 of 3
KRSQSVLYESRNKNSVA,WPSTRES,QQYHRFPLS,no signal,0 of 3

Reference: Engelhart et al. 2022, doi:10.1038/s41597-022-01779-4. File: FLAb, binding data.